Data on two substances can be found in publication PMC12704298, “Divergent acetyl-CoA binding modes mediate allosteric inhibition of bacterial hybrid-type malic enzymes” (The Journal of Biological Chemistry, 2025).

The subject of the data set is NADP^+. Put plainly: purified protein, by the assay type. To be noted: malate fixed 5 mM, 5 mM MgCl2, pH 7.5, 30.0 °C.

In general, Km refers to the concentration of substrate that gives half-maximal velocity.

Turning to BbMaeB (Bdellovibrio bacteriovorus), the Km (other: BbMaeB) came out at 18.0 ± 1.52 µM.

Regarding EcMaeB (Escherichia coli K-12), the Km (other: EcMaeB) was 24.9 ± 1.94 µM.
